# Measured values published in PubChem BioAssay AID2521 (Sanford-Burnham Center for Chemical Genomics, 2010).
# Protein sequences, listed by entry. Tags and fused reporters are not part of them. Lines headed by an entry give the natural chain unless they say otherwise; changes in a name come on top.
# UniProt P35414: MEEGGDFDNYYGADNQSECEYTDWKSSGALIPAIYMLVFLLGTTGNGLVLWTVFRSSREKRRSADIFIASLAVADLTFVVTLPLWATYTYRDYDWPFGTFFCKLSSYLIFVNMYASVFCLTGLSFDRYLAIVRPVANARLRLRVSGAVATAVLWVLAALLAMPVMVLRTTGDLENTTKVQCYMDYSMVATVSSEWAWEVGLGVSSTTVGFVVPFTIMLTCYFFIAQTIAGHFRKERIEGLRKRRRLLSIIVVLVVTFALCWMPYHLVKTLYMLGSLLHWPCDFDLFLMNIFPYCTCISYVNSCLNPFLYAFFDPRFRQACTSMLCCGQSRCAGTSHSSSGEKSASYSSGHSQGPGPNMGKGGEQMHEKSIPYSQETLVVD
# This is a selection; strong and weak results do not stand in their true shares. Calls of active or inactive are those of the source.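 The calls were made as follows: active = inhibition above about 40% at 20 µM (limit read from the data); inactive = the rest.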
# Biological target: Apelin receptor (Homo sapiens) (UniProt P35414)
# Assay: antagonists of human apelin receptor APJ, primary screen, CHO-K1 cells, beta-arrestin complementation, luminescence (AID 2521);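 also: cells challenged with 10 nM apelin-13 agonist together with compound; plate controls were apelin-13 plus DMSO wells for no effect and DMSO wells lacking apelin-13 for full effect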
# Details: at 20 µM, hits give high values
row,SMILES,inhibition
1,C[C@H]1OP(=O)(Oc2ccccc2)[C@H](O)[C@H](O)[C@H]1N=[N+]=[N-] (stereo partly specified),inactive: 10.2%
2,O=P(Nc1nc2ccccc2s1)(c1ccccc1)c1ccccc1,inactive: 1.54%
3,CN(C)C1(CNC(=O)c2ccc(Cl)c(S(N)(=O)=O)c2)CCCCC1,inactive: -22.3%
4,O=P(Nc1ccccn1)(c1ccc(Br)cc1)c1ccc(Br)cc1,inactive: -9.69%
5,O=C(OC1CN2CCC1CC2)c1cccc(Cl)c1 (stereo unspecified),inactive: 6.66%
6,C(Cc1nn[nH]n1)Cc1nn[nH]n1,inactive: 3.39%
7,Nc1ccc([As](=O)(O)c2ccc([N+](=O)[O-])cc2)cc1,inactive: -0.256%
8,O=[As](O)(c1ccccc1)c1ccc(O)cc1,inactive: 13.4%
9,O=[N+]([O-])c1ncn(CCn2cnc([N+](=O)[O-])n2)n1,inactive: -38.9%
10,c1nnnn1CCn1cnnn1,inactive: 3.79%
11,O=P(Nc1nccs1)(c1ccccc1)c1ccccc1,inactive: 14%
12,CC(C)C(=O)NC(Sc1ccccc1)C(Cl)(Cl)Cl (stereo unspecified),inactive: 2.84%
13,CC(C)(C)C(=O)NC(Sc1ccccc1)C(Cl)(Cl)Cl (stereo unspecified),inactive: -32.1%
14,CCOc1ccc(C2=NCC(CBr)S2)cc1 (stereo unspecified),inactive: 15.9%
15,O=P1(Nc2nc3ccc(Cl)cc3s2)COc2ccccc2O1 (stereo unspecified),inactive: 5.67%
16,CC(=O)Nc1ccc(Oc2c([N+](=O)[O-])cc([N+](=O)[O-])cc2[N+](=O)[O-])cc1,inactive: 8.89%
17,CC(=O)Nc1ccc([As](=O)(O)O)c(O)c1,inactive: 10.8%
18,C[C@H]1OP(=O)(Oc2ccccc2)C[C@@H]2O[C@@H]21 (stereo partly specified),inactive: 11.1%
19,C[C@@H]1C=CCP(=O)(Oc2ccccc2)O1 (stereo partly specified),inactive: 5.25%
20,Cc1ccccc1CN(C)C(=O)COC(=O)C(O)(c1ccccc1)c1ccccc1,inactive: 0.87%
21,CC(=O)c1ccc(N2CC2c2ccncc2)cc1 (stereo unspecified),inactive: -21.1%
22,Cc1ccc(NP(=O)(Oc2cccc(C)c2)Oc2cccc(C)c2)nc1,inactive: 4.28%
23,CCOC(=O)NC(Sc1ccccc1)C(Cl)(Cl)Cl (stereo unspecified),inactive: 7.5%
24,c1ccc(-c2nn[nH]n2)c(-c2nn[nH]n2)c1,inactive: -16.4%
25,O=C(NC1CCS(=O)(=O)C1)NP(=S)(Oc1ccccc1)Oc1ccccc1 (stereo unspecified),inactive: -11.3%
26,CCNC(=S)/N=C(\N)N[N+](=O)[O-],inactive: 4.19%

row,SMILES,inhibition
1,CN(C)C(=O)Oc1noc2ccccc12,inactive: 2.83%
2,CC(NC(=O)COC(=O)C(O)(c1ccccc1)c1ccccc1)c1ccccc1 (stereo unspecified),inactive: -14.7%
3,Cc1ccccc1OP(=O)(Nc1ccccn1)Oc1ccccc1C,inactive: 9.62%
4,CCC(=O)N1C2C3N(C(=O)CC)C1C1N(C(=O)CC)C(C(N1C(=O)CC)N3C(=O)CC)N2C(=O)CC,inactive: -14.9%
5,O=C(OC1CN2CCC1CC2)c1ccccc1 (stereo unspecified),inactive: 1.23%
6,CC(=O)NC(SC(=S)N(CC(C)C)CC(C)C)C(Cl)(Cl)Cl (stereo unspecified),inactive: 23.6%
7,Cc1ccc(OP(=O)(Nc2ccccn2)Oc2ccc(C)cc2)cc1,inactive: 7.5%
8,COC(=O)c1cc2c(s1)N=C(c1ccccc1)N(C)P2(=O)N1CCOCC1 (stereo unspecified),inactive: 12.4%
9,CN(C(=O)Cc1ccc(Cl)c(Cl)c1)[C@H]1CCCC[C@@H]1N1CCCC1,inactive: 4.65%
10,Cc1ccc(NP(=O)(Oc2ccccc2F)Oc2ccccc2F)nc1,inactive: 5.07%
11,Cc1cc(SC(NC(=O)c2ccc(F)cc2)C(Cl)(Cl)Cl)ncn1 (stereo unspecified),inactive: 2.03%
12,CCOP(=O)(Nc1ccccc1)OCC,inactive: 13%
13,O=P(Nc1nc2ccc(Cl)cc2s1)(c1ccccc1)c1ccccc1,inactive: 26.5%
14,CC(=O)Nc1ccc([As](=O)(O)O)cc1,inactive: 0.278%
15,O=C(O)c1ccccc1[As](=O)(O)O,inactive: -15.4%
16,CCN(N=Nc1nonc1N)c1nonc1N,inactive: 14.8%
17,O=[N+]([O-])c1cc([N+](=O)[O-])c(CCN2CCOCC2)c([N+](=O)[O-])c1,inactive: -21.4%
18,CN1CCCC(OC(=O)C(c2ccccc2)c2ccccc2)C1 (stereo unspecified),inactive: -19.1%
19,Clc1ccc(Cl)c(NC2=NCC(CBr)S2)c1 (stereo unspecified),inactive: 15.5%
20,Cc1ccc(OP(=O)(Nc2nccs2)Oc2ccc(C)cc2)cc1,inactive: 10.5%
21,COc1ccccc1OP(=O)(Nc1ccc(C)cn1)Oc1ccccc1OC,inactive: 2.81%
22,Cc1ccc(N/C(=N/P(=O)(N2CCOCC2)N2CCOCC2)N2CCOCC2)cc1,inactive: -3.95%
23,CN(C(=O)Cc1ccc(Cl)c(Cl)c1)[C@H]1CCCC[C@H]1N1CCCC1,inactive: -0.295%
24,NC(=O)c1cc([N+](=O)[O-])cc([N+](=O)[O-])c1N,inactive: -24.9%
25,O=C(NC(Sc1ccncn1)C(Cl)(Cl)Cl)c1ccccc1 (stereo unspecified),inactive: -4.97%
26,Cc1c2non([O-])c-2c(C)[n+](=O)[n+]1[O-],inactive: -16.8%

row,SMILES,inhibition
1,Oc1ccccc1CNc1ccccn1,inactive: 13.2%
2,Nc1cc(N)c2nonc2c1[N+](=O)[O-],inactive: -4.93%
3,CC(C)CC(=O)NC(Sc1ccc(Cl)cc1)C(Cl)(Cl)Cl (stereo unspecified),inactive: -4.18%
4,O=[N+]([O-])c1cc([N+](=O)[O-])c(CCNc2ccccc2)c([N+](=O)[O-])c1,inactive: 9.7%
5,CCc1nc2c(n1)c1c(non1O)c1c2no[n+]1[O-],inactive: -6.56%
6,Cc1ccc(NP(=O)(Oc2ccccc2)Oc2ccccc2)nc1,inactive: -0.161%
7,CC(=O)N1C2C3N(C(C)=O)C1C1N(C(C)=O)C(C(N1C(C)=O)N3C(C)=O)N2C(C)=O,inactive: 6.98%
8,O=[N+]([O-])c1cccc2n[nH]nc12,inactive: -18.3%
9,COc1ccc(C2=NCC(CBr)S2)cc1 (stereo unspecified),inactive: 7%
10,CC1CCN(C(=O)Oc2c(Cl)cc(Cl)c3cccnc23)CC1,inactive: -2.85%
11,CN(C)C(=O)OCCc1n(C)cc[n+]1C,inactive: 12.8%
12,CC(C)=N/N=C(\N)N[N+](=O)[O-],inactive: 14.2%
13,CCN(/C(=N/P(=O)(N1CCOCC1)N1CCOCC1)N1CCOCC1)c1ccc(OC)cc1,inactive: -19.7%
14,C[N+]1=C2C=CC=CC=C2SC12C([N+](=O)[O-])=CC([N+](=O)[O-])=C[C-]2[N+](=O)[O-] (stereo unspecified),active: 71.8%
15,Nc1ccc([As](=O)(O)c2ccc(N)cc2)cc1,inactive: 5.54%
16,O=C(Nc1cc([As](=O)(O)O)ccc1O)c1ccccc1,inactive: 0.845%
17,O=[N+]([O-])c1cccc(NC2=NCC(CBr)S2)c1 (stereo unspecified),inactive: 9.93%
18,O=[N+]([O-])c1ncn(CCn2ncnc2[N+](=O)[O-])n1,inactive: -35.5%
19,CC(C)(C)C(=O)NC(Sc1ccncn1)C(Cl)(Cl)Cl (stereo unspecified),inactive: 7.58%
20,Cc1cc(SC(NC(=O)c2ccccc2)C(Cl)(Cl)Cl)nc(C(C)C)n1 (stereo unspecified),inactive: -0.633%
21,CCCCOc1ccc(C(=O)NCC2(N3CCCCC3)CCCCC2)cc1OC,inactive: 16%
22,CCOC(=O)Nc1ccc([As](=O)(O)O)c(O)c1,inactive: -6.11%
23,Cc1cc(SC(NC=O)C(Cl)(Cl)Cl)ncn1 (stereo unspecified),inactive: 10.9%
24,O=P(Nc1ccccn1)(c1cccc2ccccc12)c1cccc2ccccc12,inactive: 6.05%
25,CCOC(=O)Nc1cccc([As](=O)(O)O)c1,inactive: 12.7%
26,O=C(Nc1ccncc1[N+](=O)[O-])c1ccc([N+](=O)[O-])cc1[N+](=O)[O-],inactive: -71.7%

row,SMILES,inhibition
1,O=C(COc1ccccc1)OC1CN2CCC1CC2 (stereo unspecified),inactive: 12.3%
2,COP1(=S)c2c(C)nn(CCC#N)c2N=C(c2ccc(F)cc2)N1C (stereo unspecified),inactive: 9.84%
3,CCC(C)N(CC(C)C)C(=S)SC(NC(C)=O)C(Cl)(Cl)Cl (stereo unspecified),inactive: -6.26%
4,O=C(OC1CN2CCC1CC2)c1cccc([N+](=O)[O-])c1 (stereo unspecified),inactive: -11.8%
5,CCOC(=O)c1ccc(NC(=O)C(C)(CCl)SC)cc1 (stereo unspecified),inactive: -0.433%
6,COc1cc(I)ccc1[As](=O)(O)O,inactive: -10%
7,COc1ccc2nc(NP(=O)(c3ccccc3)c3ccccc3)sc2c1,inactive: -0.142%
8,Cc1c2c(nc3ccccc13)SC(C(Cl)Cl)C2 (stereo unspecified),inactive: 1.73%
9,Cc1cc(=O)[nH]c(N[N+](=O)[O-])n1,inactive: 4.67%
10,O=C(OC1CN2CCC1CC2)C12CC3CC(CC(C3)C1)C2 (stereo unspecified),inactive: 5.31%
11,COc1ccc(N/C(=N/P(=O)(N2CCOCC2)N2CCOCC2)N2CCOCC2)cc1,inactive: 1.84%
12,Cc1ccc(OP(=O)(Nc2ccc([N+](=O)[O-])cn2)Oc2ccc(C)cc2)cc1,inactive: -17.1%
13,Cc1ccc2nc3c(c(C)c2c1)CC(C(Cl)Cl)S3 (stereo unspecified),inactive: 5.01%
14,COc1cc(C(=O)NCC2(N3CCOCC3)CCCCC2)ccc1OCC(C)C,inactive: 11.1%
15,O=[As](O)(c1ccc(O)cc1)c1ccccc1O,inactive: -14.5%
16,C[As](=O)(O)c1cccc(C(=O)O)c1,inactive: -8.68%
17,O=[N+]([O-])c1cc([N+](=O)[O-])c(-c2ccn[nH]2)s1,inactive: -44.4%
18,CC(C)NC(=O)NP(=O)(Oc1ccccc1)Oc1ccccc1,inactive: -3.51%
19,CCN(CC)C(=S)SC(NC=O)C(Cl)(Cl)Cl (stereo unspecified),inactive: -5.08%
20,O=C(OC1CN2CCC1CC2)c1cccc2[nH]cnc12 (stereo unspecified),inactive: -4.45%
21,ClCCSc1nnc(-c2cccnc2)o1,inactive: -5.39%
22,CC(C)c1ccc(OP(=O)(Nc2ccccn2)Oc2ccccc2F)cc1 (stereo unspecified),inactive: 13.9%
23,O=C(O)COc1ccc([As](=O)(O)O)cc1[N+](=O)[O-],inactive: -9.13%
